Measured values published in PubChem BioAssay AID1032 (The Scripps Research Institute Molecular Screening Center, 2008).
The entries are a selection whose mix differs from that of the whole data set. Activity calls are given as the source filed them. Cut-off read from the data, not from the text of the source: active = activation above about 22%; inactive = the rest.

Protein sequences, listed by entry. Tags and fused reporters are not part of them. Lines headed by an entry give the natural chain unless they say otherwise; changes in a name come on top.
UniProt P37231: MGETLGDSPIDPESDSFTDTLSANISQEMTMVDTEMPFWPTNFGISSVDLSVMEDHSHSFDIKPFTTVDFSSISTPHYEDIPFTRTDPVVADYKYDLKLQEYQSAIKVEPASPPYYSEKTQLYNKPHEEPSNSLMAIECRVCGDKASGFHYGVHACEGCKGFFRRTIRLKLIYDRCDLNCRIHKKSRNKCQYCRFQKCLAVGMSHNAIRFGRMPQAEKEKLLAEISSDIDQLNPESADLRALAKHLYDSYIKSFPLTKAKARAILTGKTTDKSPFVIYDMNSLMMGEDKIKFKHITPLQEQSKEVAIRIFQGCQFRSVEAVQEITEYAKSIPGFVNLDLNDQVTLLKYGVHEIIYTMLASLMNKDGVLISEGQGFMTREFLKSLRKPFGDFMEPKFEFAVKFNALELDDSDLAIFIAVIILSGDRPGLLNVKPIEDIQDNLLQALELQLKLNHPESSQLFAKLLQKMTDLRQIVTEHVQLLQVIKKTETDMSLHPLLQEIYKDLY

These molecules were tested against Peroxisome proliferator-activated receptor gamma (Homo sapiens) (UniProt P37231) (assay: compounds enhancing SRC-2 coactivator binding to PPARgamma – biochemical, HTS, primary screen (AID 1032;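 note: 0% = vehicle and 100% = reference agonist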)). Settings: PPARgamma LBD-SRC-2 recruitment, at 8 µM, stronger effect = higher value.
For `CN(C)c1ccc2nc3ccc(=[N+](C)C)cc-3sc2c1`, the activation was active: 474%.
